Apparent affinities of Ab-95 variants for a coronavirus HR2 peptide

All variants were tested on one target, the spike HR2 peptide PDVDLGDISGINAS (SARS-CoV-2).

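The parent was found by panning a naive human phage display library on the peptide. Variants in AAYL52 differ from the parent at up to three CDR positions; double and triple changes were sampled at random. The scFvs were displayed on barcoded MATa yeast, the peptide on MATalpha yeast. After mating in shaken culture at 30 °C for 16 h, diploids were selected and their barcode pairs sequenced. Read counts were normalised to the haploid input and turned into Kd by a linear fit to BCL2-family pairs of known affinity, for each replicate. Each pool was mated in three replicate cultures.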

Ab-95 is the parent antibody, in scFv form: VH, then the linker GGGGSGGGGSGGGGS, then VL. The heavy chain is unchanged in all variants.
VH: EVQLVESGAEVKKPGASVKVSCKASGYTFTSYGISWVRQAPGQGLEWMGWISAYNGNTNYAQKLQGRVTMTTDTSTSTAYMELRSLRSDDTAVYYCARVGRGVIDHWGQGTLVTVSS
VL: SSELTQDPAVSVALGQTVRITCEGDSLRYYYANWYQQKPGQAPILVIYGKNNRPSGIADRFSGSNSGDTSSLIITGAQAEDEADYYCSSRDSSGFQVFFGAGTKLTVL

Each variant is given by its three light chain CDRs, as the data file delimits them; those of the parent are EGDSLRYYYAN, GKNNRPS, SSRDSSGFQVF.
Numbers give log10(Kd / nM), so 0 is 1 nM and 3 is 1 µM. Smaller is tighter.
Averages over replicates are reported, and they cover detected replicates only.
"n.d." marks a missing value. The strain was present, yet no cells mated with the target were sequenced in that replicate, which points to weak or no binding.
Empty control strains, which show no peptide, gave a signal in 28% of pairings with library AAYL52; the median was 3.91 and 95% of these signals were weaker than 2.90. No background was subtracted. The control count says in how many pairings with the empty strains this scFv gave a signal, with their mean in brackets.

| CDR-L1 | CDR-L2 | CDR-L3 | replicates, log10 nM | log10 Kd (nM), mean | control signals |
|---|---|---|---|---|---|
| EFDSLRYYYAN | GKNNKPS | SSRDSSGWQVF | 3.63 / 2.53 / 3.99 | 3.38 | 6 of 9 (3.38) |
| EGDSLSYYYAN | GDNNRPS | SSRDSSGFQVE | 4.14 / 4.73 / 2.58 | 3.82 | 4 of 9 (4.50) |
| ETDSLRYYYAN | GKLNRPS | SSRDSSGFCVF | n.d. / 3.84 / n.d. | 3.84 | 4 of 9 (4.15) |
| EGDSLRYDYAN | NKNNRPS | SVRDSSGFQVF | 2.10 / 2.85 / 1.25 | 2.07 | 1 of 9 (3.58) |
| EQDTLRYYYAN | GKNNRPS | SSRSSSGFQVF | n.d. / n.d. / n.d. | n.d. | 1 of 9 (3.70) |
| EGDSLRYYYAN | GKNNRPS | SSRDHSWFQLF | n.d. / n.d. / 4.10 | 4.10 | 4 of 9 (4.18) |
| EGDSLRYYYAN | GKNNRPS | CSRDSSGFQTE | 3.14 / n.d. / 4.28 | 3.71 | 2 of 9 (3.43) |
| EGDSLRYYYAS | CKNNRPS | SSRDSSGFQVF | n.d. / n.d. / 4.37 | 4.37 | 2 of 9 (4.31) |
| EGDSLRYYYAN | GKNSRPS | SSRDSKGFIVF | n.d. / 4.55 / n.d. | 4.55 | 0 of 9 |
| EGKSLRYRYCN | GKNNRPS | SSRDSSGFQVF | 2.31 / 2.23 / 1.80 | 2.11 | 5 of 9 (4.31) |
| EGDSLRYYYAN | GKNNRPS | SSRASYGFQVF | 5.00 / 3.02 / 4.13 | 4.05 | 6 of 9 (3.48) |
| EGDSLRSYYAN | GKNNRSE | SSRDSSGFQVF | 3.28 / 2.54 / 2.47 | 2.76 | 1 of 9 (3.27) |
| EGDCLRYYYAN | GKNNRPS | SSRDMSGLQVF | 3.08 / n.d. / n.d. | 3.08 | 4 of 9 (4.01) |
| EGDSLRYYYAN | GKNNRPI | SSRSSSGFQVR | 3.11 / 2.73 / 3.28 | 3.04 | 2 of 9 (2.95) |
| EGDSSHYYYAN | GKNNVPS | SSRDSSGFQVF | 3.63 / 4.06 / 3.57 | 3.75 | 2 of 9 (4.37) |
| AGDSLRIYYAN | GKTNRPS | SSRDSSGFQVF | 3.96 / n.d. / n.d. | 3.96 | 1 of 9 (2.83) |
| EGDSLRLYYAN | GKNERPS | SSTDSSGFQVF | 3.23 / 3.19 / 2.68 | 3.03 | 5 of 9 (4.49) |
| EGDSLRLYYAN | SKNNRPE | SSRDSSGFQVF | 5.05 / 2.84 / n.d. | 3.94 | 3 of 9 (4.35) |
| EGDSLRYAYAN | GKNNRPD | SSRISSGFQVF | 1.02 / 1.01 / 0.80 | 0.94 | 6 of 9 (4.01) |
| EGDSLRYYYAN | GCNNRPS | SYRDSPGFQVF | n.d. / 4.90 / n.d. | 4.90 | 2 of 9 (3.30) |
| EGDSLRYYDAN | GKHARPS | SSRDSSGFQVF | 1.42 / 1.34 / 0.82 | 1.19 | 6 of 9 (4.03) |
| EGDSKRYNYAN | GKNNRPS | SSRDSSLFQVF | 2.85 / 3.46 / 3.95 | 3.42 | 1 of 9 (3.55) |
| EIDSLRYYYAN | GKNTRIS | SSRDSSGFQVF | 3.54 / n.d. / n.d. | 3.54 | 3 of 9 (3.85) |
| EGDYLRYYYAN | GLNNRPS | SSRDRSGFQVF | 3.93 / 3.60 / n.d. | 3.76 | 2 of 9 (3.94) |
| EGDSLIYYYAN | GINNRPS | SSRDSSGRQVF | 2.99 / 3.40 / 3.47 | 3.29 | 4 of 9 (3.99) |
| EGDSLRYRYAN | GKNNRPS | SSRDSSGFQVF | 2.00 / 2.05 / 1.74 | 1.93 | 5 of 9 (3.38) |
| EGDSLRTYYAN | GKNNRPS | SSRDFSGFQVF | 2.35 / 2.16 / 1.66 | 2.06 | 6 of 9 (4.25) |
| EGDSLRYYYAN | GKNNRPS | SSRRQSGFQVF | 2.53 / 2.45 / 2.29 | 2.42 | 2 of 9 (4.14) |
| EGWSLRYYYAN | GKNNMPS | SSRDSYGFQVF | n.d. / n.d. / n.d. | n.d. | 1 of 9 (2.94) |
| EGDSLRYYYAL | GSNNRPS | SSRGSSGFQVF | n.d. / n.d. / n.d. | n.d. | 0 of 9 |
| EGDSLRYYKAN | TKNNRPA | SSRDSSGFQVF | 5.60 / 3.98 / 4.40 | 4.66 | 2 of 9 (4.87) |
| EGNSLRYYYAN | GKNGRPS | SSRDSSGFQVS | 3.59 / n.d. / 3.03 | 3.31 | 2 of 9 (3.70) |
| EGDSLRCYYAY | GKNNRPS | SSRDSSGFVVF | n.d. / n.d. / n.d. | n.d. | 2 of 9 (3.37) |
| EGDSLRDYYAN | GKTHRPS | SSRDSSGFQVF | 3.09 / 3.14 / 2.78 | 3.01 | 6 of 9 (3.96) |
| EGDSLRYYYAN | GKNNRPS | SSRDSSEFQGF | n.d. / 2.89 / 3.51 | 3.20 | 2 of 9 (3.18) |
| EGNSLRYMYAN | GKNNRPS | SSRDSSGDQVF | 2.61 / 2.70 / 2.31 | 2.54 | 7 of 9 (3.63) |

Excerpt, the first 5 entries:

| CDR-L1 | CDR-L2 | CDR-L3 | replicates, log10 nM | log10 Kd (nM), mean | control signals |
|---|---|---|---|---|---|
| EFDSLRYYYAN | GKNNKPS | SSRDSSGWQVF | 3.63 / 2.53 / 3.99 | 3.38 | 6 of 9 (3.38) |
| EGDSLSYYYAN | GDNNRPS | SSRDSSGFQVE | 4.14 / 4.73 / 2.58 | 3.82 | 4 of 9 (4.50) |
| ETDSLRYYYAN | GKLNRPS | SSRDSSGFCVF | n.d. / 3.84 / n.d. | 3.84 | 4 of 9 (4.15) |
| EGDSLRYDYAN | NKNNRPS | SVRDSSGFQVF | 2.10 / 2.85 / 1.25 | 2.07 | 1 of 9 (3.58) |
| EQDTLRYYYAN | GKNNRPS | SSRSSSGFQVF | n.d. / n.d. / n.d. | n.d. | 1 of 9 (3.70) |

In this assay the parent's reference entry averaged 2.31; its copy inside this library read 2.25.

Reference: Engelhart et al. 2022, doi:10.1038/s41597-022-01779-4. File: FLAb, binding data.